16 compounds from US7829568B2, “Substituted 5,6,7,8-tetrahydroimidazo[1,2-a]pyridin-2-ylamine compounds and their use for producing drugs” (Gruenenthal GmbH, priority 2005, dated 2010) can be followed below.

Chains of the proteins cited; added tags and fusions are not shown.
UniProt O35433, whole entry: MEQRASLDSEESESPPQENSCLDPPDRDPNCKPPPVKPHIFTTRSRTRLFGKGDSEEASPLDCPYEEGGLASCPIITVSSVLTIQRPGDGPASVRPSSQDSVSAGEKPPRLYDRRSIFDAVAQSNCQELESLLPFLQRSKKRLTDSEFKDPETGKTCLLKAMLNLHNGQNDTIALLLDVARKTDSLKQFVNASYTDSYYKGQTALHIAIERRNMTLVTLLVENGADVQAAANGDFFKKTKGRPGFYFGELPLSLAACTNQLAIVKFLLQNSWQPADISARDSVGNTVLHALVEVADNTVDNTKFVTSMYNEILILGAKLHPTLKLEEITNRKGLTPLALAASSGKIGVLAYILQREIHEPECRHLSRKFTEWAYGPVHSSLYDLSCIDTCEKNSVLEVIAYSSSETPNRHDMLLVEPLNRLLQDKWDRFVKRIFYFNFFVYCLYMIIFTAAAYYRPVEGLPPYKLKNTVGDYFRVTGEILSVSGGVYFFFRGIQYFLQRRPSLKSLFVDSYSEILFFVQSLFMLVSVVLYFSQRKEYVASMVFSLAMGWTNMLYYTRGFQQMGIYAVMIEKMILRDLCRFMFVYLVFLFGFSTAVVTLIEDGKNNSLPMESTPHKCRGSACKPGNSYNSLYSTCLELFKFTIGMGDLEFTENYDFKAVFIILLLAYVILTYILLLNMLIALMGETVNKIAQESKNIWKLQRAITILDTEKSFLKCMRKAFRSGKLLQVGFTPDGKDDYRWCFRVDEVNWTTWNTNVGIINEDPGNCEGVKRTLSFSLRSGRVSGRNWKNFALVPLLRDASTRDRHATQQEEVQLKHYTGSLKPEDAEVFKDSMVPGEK

The target in the assay is vanilloid receptor 1 (VR1/TRPV1) of rats (Rattus norvegicus, UniProt O35433). Description: Functional analysis on the vanilloid receptor 1 (FLIPR Ca2+ influx assay in rat dorsal root ganglia cells). The settings on record: for inhibition at 10 µM: read-out: VR1 (rat) (% inhibition in comparison with 10 μM CP); for activation at 10 µM: read-out: VR1 (rat) (% stimulation in comparison with 10 μM CP); for VR1 (rat) (% inhibition in comparison with 10 μM CP): then 100 nM capsaicin after 5 min, relative to maximum inhibition with 10 μM capsaicin.

Broadly, the inhibition is the change of the read-out against control, counted positive when it falls. With `CN(C(=O)c1cccc(Cl)c1)c1nc2n(c1C(=O)NCCC(c1ccccc1)c1ccccc1)CCCC2` [Example 128, 2-[(3-chloro-benzoyl)-methyl-amino]-5,6,7,8-tetrahydro-imidazo[1,2-a]pyridine-3-carboxylic acid (3,3-diphenyl-propyl)-amide], the inhibition at 10 µM worked out at 39%. In the case of `CCCCN(C(=O)c1cccc(Cl)c1)c1nc2n(c1C(=O)N[C@H](CC)c1ccccc1)CCCC2` [Example 132, 2-[butyl-(3-chloro-benzoyl)-amino]-5,6,7,8-tetrahydro-imidazo[1,2-a]pyridine-3-carboxylic acid (1-phenyl-propyl)-amide], the inhibition at 10 µM was 99% and the activation at 10 µM was found to be 67%.

Consider `CCCCN(C(=O)c1cccc(Cl)c1)c1nc2n(c1C(=O)NCc1cccc(C)c1C)CCCC2` [Example 133, 2-[butyl-(3-chloro-benzoyl)-amino]-5,6,7,8-tetrahydro-imidazo[1,2-a]pyridine-3-carboxylic acid 2,3-dimethyl-benzylamide], for which the inhibition at 10 µM was determined as 64%. In the case of `CN(C(=O)c1cccc2ccccc12)c1nc2n(c1C(=O)NC(c1ccccc1)c1ccc(Cl)cc1)CCCC2` (stereo not drawn) [Example 139, 2-[methyl-(naphthalene-1-carbonyl)-amino]-5,6,7,8-tetrahydro-imidazo[1,2-a]pyridine-3-carboxylic acid [(4-chlor-phenyl)-phenyl-methyl]-amide], under “compound 10 μM, rat DRG cells”, the “VR1 (rat) (% inhibition in comparison with 10 μM CP)” value came out at 43%.

As for `CCCCN(C(=O)c1cccc(Cl)c1)c1nc2n(c1C(=O)NC(C)CCc1ccccc1)CCCC2` (stereo not drawn) [Example 145, 2-[butyl-(3-chloro-benzoyl)-amino]-5,6,7,8-tetrahydro-imidazo[1,2-a]pyridine-3-carboxylic acid (1-methyl-3-phenyl-propyl)-amide], the inhibition at 10 µM was 82% and the activation at 10 µM stood at 30%. Turning to `CCCCN(C(=O)c1cccc(Cl)c1)c1nc2n(c1C(=O)NC(c1ccccc1)c1ccccc1)CCCC2` [Example 147, 2-[butyl-(3-chloro-benzoyl)-amino]-5,6,7,8-tetrahydro-imidazo[1,2-a]pyridine-3-carboxylic acid benzhydryl-amide], the inhibition at 10 µM was found to be 53%.

For the compound `CCCCN(C(=O)c1cccc(Cl)c1)c1nc2n(c1C(=O)NCc1cccs1)CCCC2` [Example 149, 2-[butyl-(3-chloro-benzoyl)-amino]-5,6,7,8-tetrahydro-imidazo[1,2-a]pyridine-3-carboxylic acid (thiophen-2-ylmethyl)-amide], the inhibition at 10 µM was 72% and the activation at 10 µM worked out at 43%. As to `CN(C(=O)Cc1ccccc1)c1nc2n(c1C(=O)NCCc1cccc(C(F)(F)F)c1)CCCC2` [Example 156, 2-(methyl-phenylacetyl-amino)-5,6,7,8-tetrahydro-imidazo[1,2-a]pyridine-3-carboxylic acid [2-(3-trifluoromethyl-phenyl)-ethyl]-amide], the inhibition at 10 µM was 34%. In the case of `CCCCN(C(=O)c1cccc(Cl)c1)c1nc2n(c1C(=O)NCc1cccc(F)c1)CCCC2` [Example 158, 2-[butyl-(3-chloro-benzoyl)-amino]-5,6,7,8-tetrahydro-imidazo[1,2-a]pyridine-3-carboxylic acid 3-fluoro-benzylamide], the inhibition at 10 µM is 53% and the activation at 10 µM stood at 33%. Taken in the same sequence, the figures for `CCCCN(C(=O)c1ccc(F)c(F)c1)c1nc2n(c1C(=O)NC1CCCCC1OCc1ccccc1)CCCC2` (stereo not drawn) [Example 161, 2-[butyl-(3,4-difluoro-benzoyl)-amino]-5,6,7,8-tetrahydro-imidazo[1,2-a]pyridine-3-carboxylic acid (2-benzyloxy-cyclohexyl)-amide] were 91% and 32%.

On to `CC(CNC(=O)c1c(N(C)C(=O)c2cccc3ccccc23)nc2n1CCCC2)c1ccc(Cl)cc1` (stereo not drawn) [Example 163, 2-[methyl-(naphthalene-1-carbonyl)-amino]-5,6,7,8-tetrahydro-imidazo[1,2-a]pyridine-3-carboxylic acid [2-(4-chlor-phenyl)-propyl]-amide], for which, for the setting “compound 10 μM, rat DRG cells”, the “VR1 (rat) (% inhibition in comparison with 10 μM CP)” value came out at 53%. In addition, the “VR1 (rat) (% stimulation in comparison with 10 μM CP)” value (compound 10 μM, rat DRG cells, Ca2+ signal relative to 10 μM capsaicin (CP)) is on record as 83%.

Take `CC(NC(=O)c1c(N(C)C(=O)c2cccc(Cl)c2)nc2n1CCCC2)C12CC3CC(CC(C3)C1)C2` (stereo not drawn) [Example 165, 2-[(3-chloro-benzoyl)-methyl-amino]-5,6,7,8-tetrahydro-imidazo[1,2-a]pyridine-3-carboxylic acid (1-adamantan-1-yl-ethyl)-amide]: the inhibition at 10 µM was 47%.

In the case of `CCCCN(C(=O)c1ccc(F)c(F)c1)c1nc2n(c1C(=O)NCCC(C)(C)C)CCCC2` [Example 171, 2-[butyl-(3,4-difluoro-benzoyl)-amino]-5,6,7,8-tetrahydro-imidazo[1,2-a]pyridine-3-carboxylic acid (3,3-dimethyl-butyl)-amide], the inhibition at 10 µM turned out to be 104% and the activation at 10 µM was determined as 46%. On the same counts, the results for `CCCCN(C(=O)c1ccc(F)c(F)c1)c1nc2n(c1C(=O)NCCC(c1ccccc1)c1ccccc1)CCCC2` [Example 180, 2-[butyl-(3,4-difluoro-benzoyl)-amino]-5,6,7,8-tetrahydro-imidazo[1,2-a]pyridine-3-carboxylic acid (3,3-diphenyl-propyl)-amide] are 102% and 56%.

As to `CN(C(=O)c1cccc2ccccc12)c1nc2n(c1C(=O)Nc1ccc(Oc3ccccc3)cc1)CCCC2` [Example 185, 2-[methyl-(naphthalene-1-carbonyl)-amino]-5,6,7,8-tetrahydro-imidazo[1,2-a]pyridine-3-carboxylic acid (4-phenoxy-phenyl)-amide], the inhibition at 10 µM was 56%. For `CCCCN(C(=O)c1ccc(F)c(F)c1)c1nc2n(c1C(=O)N1CCN(c3ccc(C(F)(F)F)cn3)CC1)CCCC2` [Example 187, N-butyl-3,4-difluoro-N-{3-[4-(5-trifluoromethyl-pyridin-2-yl)-piperazine-1-carbonyl]-5,6,7,8-tetrahydro-imidazo[1,2-a]pyridin-2-yl}-benzamide], the inhibition at 10 µM came out at 37%.
